Measurements: publication PMC2948013 (PLoS ONE, 2010)

B1: mDia1 DID-DD, residues 131–458 (domain or fragment, mouse (murine), UniProt O08808 131-458, looked up)
chain: ESSRSAMMYIQELRSGLRDMHLLSCLESLRVSLNNNPVSWVQTFGAEGLASLLDILKRLHDEKEETSGNYDSRNQHEIIRCLKAFMNNKFGIKTMLETEEGILLLVRAMDPAVPNMMIDAAKLLSALCILPQPEDMNERVLEAMTERAEMDEVERFQPLLDGLKSGTSIALKVGCLQLINALITPAEELDFRVHIRSELMRLGLHQVLQELREIENEDMKVQLCVFDEQGDEDFFDLKGRLDDIRMEMDDFGEVFQIILNTVKDSKAEPHFLSILQHLLLVRNDYEARPQYYKLIEECVSQIVLHKNGTDPDFKCRHLQIDIERLVDQ
notes: mDia1 (murine Dia1, diaphanous-related formin), residues 131-458: DID and DD domains; Tag removed with TEV protease after mixing with the C-terminal fragment; The final model holds residues 134-451; also called N-terminus; source: E. coli BL21 (DE3), purified (Ni-chelating column; N+C complex by anion exchange, HiTrapQ)
B2: mDia1 G-DID-DD-CC, residues 63–518 (domain or fragment, mouse (murine), UniProt O08808 63-518, looked up)
chain: SASYGDDPTAQSLQDISDEQVLVLFEQMLVDMNLNEEKQQPLREKDIVIKREMVSQYLHTSKAGMNQKESSRSAMMYIQELRSGLRDMHLLSCLESLRVSLNNNPVSWVQTFGAEGLASLLDILKRLHDEKEETSGNYDSRNQHEIIRCLKAFMNNKFGIKTMLETEEGILLLVRAMDPAVPNMMIDAAKLLSALCILPQPEDMNERVLEAMTERAEMDEVERFQPLLDGLKSGTSIALKVGCLQLINALITPAEELDFRVHIRSELMRLGLHQVLQELREIENEDMKVQLCVFDEQGDEDFFDLKGRLDDIRMEMDDFGEVFQIILNTVKDSKAEPHFLSILQHLLLVRNDYEARPQYYKLIEECVSQIVLHKNGTDPDFKCRHLQIDIERLVDQMIDKTKVEKSEAKATELEKKLDSELTARHELQVEMKKMENDFEQKLQDLQGEKDALDSEK
notes: mDia1 (murine Dia1), residues 63-518: G domain, DID, DD and portions of the coiled-coil domain; source: complex with the C-terminal fragment co-purified as described in Materials and Methods
B3: mDia1 GBD-DID-DD, residues 72–458 (domain or fragment, mouse (murine), UniProt O08808 72-458, looked up)
chain: AQSLQDISDEQVLVLFEQMLVDMNLNEEKQQPLREKDIVIKREMVSQYLHTSKAGMNQKESSRSAMMYIQELRSGLRDMHLLSCLESLRVSLNNNPVSWVQTFGAEGLASLLDILKRLHDEKEETSGNYDSRNQHEIIRCLKAFMNNKFGIKTMLETEEGILLLVRAMDPAVPNMMIDAAKLLSALCILPQPEDMNERVLEAMTERAEMDEVERFQPLLDGLKSGTSIALKVGCLQLINALITPAEELDFRVHIRSELMRLGLHQVLQELREIENEDMKVQLCVFDEQGDEDFFDLKGRLDDIRMEMDDFGEVFQIILNTVKDSKAEPHFLSILQHLLLVRNDYEARPQYYKLIEECVSQIVLHKNGTDPDFKCRHLQIDIERLVDQ
notes: mDia1 (murine Dia1), residues 72-458: G domain, DID and DD domains; also called G-DID-DD; source: E. coli BL21 (DE3), purified; analogous procedures to the 131-458 fragment
B4: mDia1 DID-DD-CC, residues 131–477 (domain or fragment, mouse (murine), UniProt O08808 131-477, looked up)
chain: ESSRSAMMYIQELRSGLRDMHLLSCLESLRVSLNNNPVSWVQTFGAEGLASLLDILKRLHDEKEETSGNYDSRNQHEIIRCLKAFMNNKFGIKTMLETEEGILLLVRAMDPAVPNMMIDAAKLLSALCILPQPEDMNERVLEAMTERAEMDEVERFQPLLDGLKSGTSIALKVGCLQLINALITPAEELDFRVHIRSELMRLGLHQVLQELREIENEDMKVQLCVFDEQGDEDFFDLKGRLDDIRMEMDDFGEVFQIILNTVKDSKAEPHFLSILQHLLLVRNDYEARPQYYKLIEECVSQIVLHKNGTDPDFKCRHLQIDIERLVDQMIDKTKVEKSEAKATELEK
notes: mDia1 (murine Dia1), residues 131-477: DID, DD and a portion of the coiled-coil region; also called long N; source: E. coli BL21 (DE3), purified; analogous procedures to the 131-458 fragment
B5: mDia1 FH2-DAD, residues 736–1200 (domain or fragment, mouse (murine), UniProt O08808 736-1200, looked up)
chain: FGFGVPAAPVLPFGLTPKKVYKPEVQLRRPNWSKFVAEDLSQDCFWTKVKEDRFENNELFAKLTLAFSAQTKTSKAKKDQEGGEEKKSVQKKKVKELKVLDSKTAQNLSIFLGSFRMPYQEIKNVILEVNEAVLTESMIQNLIKQMPEPEQLKMLSELKEEYDDLAESEQFGVVMGTVPRLRPRLNAILFKLQFSEQVENIKPEIVSVTAACEELRKSENFSSLLELTLLVGNYMNAGSRNAGAFGFNISFLCKLRDTKSADQKMTLLHFLAELCENDHPEVLKFPDELAHVEKASRVSAENLQKSLDQMKKQIADVERDVQNFPAATDEKDKFVEKMTSFVKDAQEQYNKLRMMHSNMETLYKELGDYFVFDPKKLSVEEFFMDLHNFRNMFLQAVKENQKRRETEEKMRRAKLAKEKAEKERLEKQQKREQLIDMNAEGDETGVMDSLLEALQSGAAFRRKRG
notes: mDia1 (murine Dia1, diaphanous-related formin), residues 736-1200: FH2 and DAD domains, FH1 omitted; Tag removal is described for the N+C complexes; The final model holds residues 745-1198; also called C-terminus; source: E. coli BL21 (DE3), purified (Ni-chelating column; N+C complex by anion exchange, HiTrapQ)
B6: mDia1 N-terminal fragment, residues 63-462 (domain or fragment, mouse (murine), UniProt O08808 63-462, looked up)
chain: SASYGDDPTAQSLQDISDEQVLVLFEQMLVDMNLNEEKQQPLREKDIVIKREMVSQYLHTSKAGMNQKESSRSAMMYIQELRSGLRDMHLLSCLESLRVSLNNNPVSWVQTFGAEGLASLLDILKRLHDEKEETSGNYDSRNQHEIIRCLKAFMNNKFGIKTMLETEEGILLLVRAMDPAVPNMMIDAAKLLSALCILPQPEDMNERVLEAMTERAEMDEVERFQPLLDGLKSGTSIALKVGCLQLINALITPAEELDFRVHIRSELMRLGLHQVLQELREIENEDMKVQLCVFDEQGDEDFFDLKGRLDDIRMEMDDFGEVFQIILNTVKDSKAEPHFLSILQHLLLVRNDYEARPQYYKLIEECVSQIVLHKNGTDPDFKCRHLQIDIERLVDQMIDK
notes: mDia1 (murine Dia1), N-terminal residues 63-462

Key:
[1] = target: B5; test: SEC-MALS; Superose 6, 1 mg/ml, 0.3 ml injected, 0.3 ml/min, 20 mM HEPES pH 7.4, 150 mM NaCl, 1 mM EDTA, 2 mM DTT; N+C complexes isolated by anion exchange (HiTrapQ) beforehand; C-terminal fragment also run alone; conditions: both partners purified
[2] = target: B5; test: native gel or EMSA; non-denaturing PAGE, 4–15% gradient gel on a PhastSystem; complexes co-purified or combined from separately purified fragments; analysed on Day 0 and after five days; conditions: both partners purified
[3] = target: the molecule itself; test: SEC-MALS; Superose 6, 1 mg/ml, 0.3 ml injected, 0.3 ml/min, 20 mM HEPES pH 7.4, 150 mM NaCl, 1 mM EDTA, 2 mM DTT; N+C complexes isolated by anion exchange (HiTrapQ) beforehand; C-terminal fragment also run alone

| Binder | stoichiometry N [1] | binding result [2] | other results |
| --- | --- | --- | --- |
| B1 | 1 N-terminal chain per C-terminal chain (4:4 complex) |  |  |
| B2 |  | binds |  |
| B3 | 1 N-terminal chain per C-terminal chain (4:4 complex) |  |  |
| B4 | 1 N-terminal chain per C-terminal chain (2:2 complex) |  |  |
| B5 |  |  | binding result [3]: binds |
| B6 |  | binds |  |
